What was measured:
healthy participants [1] = test: Example 2 Phase 1 SAD/MAD study overall: safety and tolerability
Protocol: (§1) The study was performed in 3 parts in 112 healthy male and female participants, including 24 Japanese participants. Female participants were to be not of childbearing potential. The present study was designed to evaluate the safety and tolerability, PK, and exploratory PD of an oral suspension of Compound A. Parts A and B (Cohort B1 only) enrolled healthy participants and was conducted at a site in The Netherlands and Part B (Cohort B2 to B5) enrolled healthy non-Japanese participants and was conducted at a site in the United Kingdom (UK). Part C enrolled healthy Japanese participants and was conducted at the same site in the UK.
Part A was an SAD study in a planned number of 6 sequential dose escalation cohorts (3, 10, 30, 100, 150, or 250 mg) of 8 healthy participants (6 active+2 placebo) each, under fasted conditions. Eligible participants in Part A (excluding those in Cohort A7 [food effect (FE)/pH cohort]) received a single administration of study drug (Compound A or placebo) under fasted conditions. […]
Physical examinations, vital sign measurements (including orthostasis testing in Cohort A6, Cohort B3 to B5, and C1 to C3 at selected time points), 12-lead electrocardiogram (ECG), and clinical laboratory evaluations were performed at selected times throughout the study. […] Participants were closely monitored for adverse events (AEs). […]

participants with PPF = test: Phase 2 PPF cohort: efficacy (FVC, ppFVC), 26 weeks
Protocol: A total of 123 participants with PPF were randomized. Participants (age ≥21 years) were randomized (1:1:1) to receive 30 mg or 60 mg Compound A or PBO twice daily for 26 weeks. […] Immunosuppressive medications (mycophenolate mofetil, mycophenolic acid, azathioprine and/or tacrolimus) were permitted only if dosing is stable for ≥6 months prior to screening. If receiving antifibrotic agents pirfenidone or nintedanib, patients had to receive a stable dosage for ≥3 months prior to screening and during the screening period; if not receiving pirfenidone or nintedanib, patients had to be naive to both drugs or not have received either 4 weeks prior to Day 1. A total of 47 (38.2%) subjects were receiving antifibrotic treatment (with or without immunosuppression therapy). Of those subjects, 34 were being treated with nintedanib and 13 with pirfenidone. Participants were stratified by usual interstitial pneumonia (UIP) pattern (presence versus absence) and background therapy (antifibrotics+/−ILD-targeted immunosuppression versus ILD-targeted immunosuppression alone versus none).UIP pattern was present in 52% of subjects and unclassifiable ILD was the most common disease categorization.
The study was not powered to detect statistical significance (no formal testing). No target effect size was defined in the study design. There were two estimand approaches for analysis:
Treatment Policy: Effect of treatment with dose reduction as part of treatment regimen.
While-On Treatment: Effect of treatment without dose reduction.
The main efficacy endpoint, rate of FVC decline (in % of predicted) from baseline to wk-26 in the PPF cohort, was estimated using a linear mixed-effects model utilizing all FVC timepoints. It was analyzed under a primary estimand (utilizing all data, treatment policy strategy), and under supplementary estimand (utilizing all data up to the point of dose reduction, while-on-treatment strategy). Analysis was performed in the overall population as well as in sub-groups by 1) background anti-fibrotic treatment or not 2) UIP radiographic pattern (presence or not). The mean baseline ppFVC was 66.7% for the PPF cohort.

healthy participants [2] = test: Example 2 Part B: multiple ascending dose (MAD) study in healthy participants, blood pressure
Protocol: as §1
Part B was a MAD study in a planned number of 6 sequential dose escalation cohorts (10 mg QD, 30 mg QD, 30 mg BID, 60 mg BID, 125 mg BID, and ≤250 mg BID) of 8 healthy participants (6 active+2 placebo) each, under fasted conditions. However, Cohort B6 (≤250 mg BID) was cancelled because sufficient safety and PK data had been obtained at doses up to 125 mg BID. Eligible participants received study drug (Compound A or placebo) administered orally for 14 days.
Physical examinations, vital sign measurements (including orthostasis testing in Cohort A6, Cohort B3 to B5, and C1 to C3 at selected time points), 12-lead electrocardiogram (ECG), and clinical laboratory evaluations were performed at selected times throughout the study. In addition, Holter monitoring was performed for the first 24 hours post dose on Day 1 in Part A (not in FE/pH cohort), and also for the first 24 hours post dose on Day 1 and Day 14 in Parts B and C. Participants were closely monitored for adverse events (AEs). Blood samples were collected for up to 14 days (follow-up visit) after (last) study drug administration for PK analysis. In addition, blood and urine were collected for exploratory biomarker assessments and for biobanking of samples for potential analyses. […]

[3] = 60 mg BID, not receiving antifibrotic, primary estimand
[4] = 60 mg BID, not receiving antifibrotic, supplementary estimand

In the case of `CCCN(C)C(=O)OCc1c(-c2ccc(O[C@H]3CCC[C@H](C(=O)O)C3)c(C)n2)nnn1C`, the Heart rate change (healthy participants [1]) is reported as “not associated with meaningful changes in heart rate”, the “Symptoms of BP reductions” value (healthy participants [1]) is reported as “mostly asymptomatic” and the “Mean observed change in ppFVC and FVC vs placebo” value (shortened to “Mean observed change”) (participants with PPF; 30 mg BID, after week 20) is reported as “more significant improvement after week 20”. For the same compound, the “Difference in rate of decline in FVC (% predicted) vs placebo” value (participants with PPF; 30 mg BID, not receiving antifibrotic, primary estimand) was 1.28%, the “Rate of decline in FVC (% predicted), slope” value (from here on “Rate … (% predicted), slope”) (participants with PPF; 30 mg BID, not receiving antifibrotic, supplementary estimand) was −2.83% and the “Rate … (% predicted), slope” value (participants with PPF; 30 mg BID, receiving antifibrotic, supplementary estimand) was −1.8%. For the same compound, the “Mean observed change” value (participants with PPF; 30 mg and 60 mg BID, week 8) was “both 30 mg and 60 mg show improvement over placebo at week 8”, the Efficacy (participants with PPF; 60 mg BID, 37% on background anti-fibrotics) was “Efficacy of Compound A (60 mg) was shown” and the “Relative reduction in rate of decline in FVC (% predicted)” value (“Relative reduction … (% predicted)” below) (participants with PPF; 60 mg BID, UIP absent, primary estimand) was “Policy Strategy (Relative Reduction = 83.6%)”. The “Relative reduction … (% predicted)” value (participants with PPF; 60 mg BID, UIP absent, supplementary estimand) was “While on Treatment (Relative Reduction = 84.4%)”, the “Difference in rate of decline in FVC (% predicted) vs placebo” value (participants with PPF; [3]) was 2.85% and the “Relative reduction … (% predicted)” value (participants with PPF; [3]) was “Estimand - Treatment Policy (Relative Reduction = 68.5%)”. For the same compound, the “Rate … (% predicted), slope” value (participants with PPF; [4]) was −1.56%, the “Relative reduction … (% predicted)” value (participants with PPF; [4]) was “Estimand - While on Treatment (Relative Reduction = 62.6%)” and the “Relative reduction … (% predicted)” value (participants with PPF; 60 mg BID, receiving antifibrotic, primary estimand) was “Estimand - Treatment Policy (Relative Reduction = 85%)”. For the same compound, the “Relative reduction … (% predicted)” value (participants with PPF; 60 mg BID, receiving antifibrotic, supplementary estimand) was “Estimand - While on Treatment (Relative Reduction = 74.9%)”, the “Mean observed change” value (participants with PPF; 60 mg BID, through week 26) was “maintains the improvement over placebo through the end of week 26” and the “Treatment difference 60 mg v placebo, rate of decline in ppFVC” value (shortened to “Treatment difference 60 mg v placebo”) (participants with PPF; Anti-fibrotic subgroup, Week 26, N 15/15) was 3.28%. For the same compound, the “Treatment differences in rate of change in ppFVC by background antifibrotic use” value (participants with PPF; FIGS. 11C and 11D) was “consistent with or without background antifibrotic use”, the “Treatment differences by UIP pattern” value (participants with PPF; FIGS. 14-16) was “treatment differences were seen in the PPF cohort independent of UIP pattern presence or absence” and the “Treatment difference 60 mg v placebo” value (participants with PPF; No antifibrotic subgroup, Week 26, N 27/26) was 2.61%. The “Treatment difference 60 mg v placebo” value (participants with PPF; Non UIP subgroup, Week 26, N 21/20) was 3.80%, the Dose response (participants with PPF; PPF cohort) was “Clear dose response” and the “Treatment difference 60 mg v placebo” value (participants with PPF; UIP subgroup, Week 26, N 21/21) was 2.12%. For the same compound, the Efficacy in sub-groups (participants with PPF; irrespective of background antifibrotics or UIP pattern) was “Efficacy consistent in all sub-groups”, the “Treatment difference 60 mg v placebo” value (participants with PPF; overall, baseline to Week 26, N 42/41) was 2.94% and the “BP reductions in QD groups” value (healthy participants [2]; 10 and 30 mg QD) was “reductions generally occurred in a Compound A dose-dependent manner”. For the same compound, the “BP reductions in BID groups vs placebo” value (healthy participants [2]; 30, 60, 125 mg BID) was “no clear differences between placebo and the Compound A groups” and the “Magnitude of BP reductions with repeated dosing” value (healthy participants [2]; 14 days) was “no clear changes in the magnitude of BP reductions with repeated dosing over the 14-day treatment period”.
